pIC50: −log10 of the molar value.
Key:
[1] = target: human histamine H3 receptors (Homo sapiens (Human), UniProt Q9Y5N1); test: Histamine H3 SPA with the agonist radioligand [3H]-N-α-methylhistamine (hH3 binding); settings: inhibition of [3H]-N-α-methylhistamine (1.4 nM) binding to CHO-K1 membranes expressing full-length human H3 (isoform 445)
Experimental: Histamine H3 SPA with the Agonist Radioligand [^3H]-N-α-Methylhistamine
The H3 binding assay was/can be used to evaluate the ability of at least one compound in accordance with formula I, Ia, Ib, and/or Ic to inhibit [^3H]-N-α-methylhistamine binding to CHO-K1 membranes expressing human histamine H3 receptors (full-length H3, the most prevalent brain isoform 445). In 200 μl 96-well SPA format, human H3 membranes (12.5 μg protein/well) and 1.4 nM [^3H]-N-α-methylhistamine were/can be incubated with at least one compound in accordance with formula I, Ia, Ib, and/or Ic for 1.5 hrs to determine percent effect with respect to total (1% DMSO) and non-specific binding (10 μM imetit). Reproducibility of the assay is such that IC50 curves can be generated in singlicate. Single poke (SP) testing can be done in triplicate.
Membranes, prepared from CHO-K1 cells stably expressing the human histamine H3 receptor, can be obtained from ACS.
Tested formula I, Ia, Ib, and/or Ic compounds were/can be provided as solubilized samples in neat DMSO. Serial dilutions were/can be performed in DMSO.
Plates were/can be 96-well Unifilter GF/B (Perkin Elmer, 6005177). Plates were/can be read on a Perkin Elmer TopCount. CPM data was/can be used to analyze unless DPM data generated by a quench curve was/is required.
• 1. 1 mg/ml BSA was/can be added to assay buffer (AB) on day of assay. • 2. Amounts required for bead/membrane pool in AB were/can be calculated: “P”−need 17.1 ml/assay plate+10 ml PlateMate excess. Buffer volume was/can be split between beads and membranes to allow for polytroning of membranes prior to addition to beads. • a. PVT-WGA SPA Beads: beads (P×9.83 mg/ml) were/can be resuspended for 1750 μg/well final. A minimum of 15 minutes was/can be waited prior to adding membranes (See b. below). • b. Membranes (hH3 membranes from CHO cells containing recombinant human H3 receptors, 11.7 mg/ml): membranes were/can be removed from −80° C. and thawed in RT waterbath. […] 5 μl samples were/can be calculated in quadruplicate on the 13 counter. […]

Chains of the proteins cited; added tags and fusions are not shown. Lines headed by an entry give the natural chain unless they say otherwise; changes in a name come on top.
UniProt Q9Y5N1: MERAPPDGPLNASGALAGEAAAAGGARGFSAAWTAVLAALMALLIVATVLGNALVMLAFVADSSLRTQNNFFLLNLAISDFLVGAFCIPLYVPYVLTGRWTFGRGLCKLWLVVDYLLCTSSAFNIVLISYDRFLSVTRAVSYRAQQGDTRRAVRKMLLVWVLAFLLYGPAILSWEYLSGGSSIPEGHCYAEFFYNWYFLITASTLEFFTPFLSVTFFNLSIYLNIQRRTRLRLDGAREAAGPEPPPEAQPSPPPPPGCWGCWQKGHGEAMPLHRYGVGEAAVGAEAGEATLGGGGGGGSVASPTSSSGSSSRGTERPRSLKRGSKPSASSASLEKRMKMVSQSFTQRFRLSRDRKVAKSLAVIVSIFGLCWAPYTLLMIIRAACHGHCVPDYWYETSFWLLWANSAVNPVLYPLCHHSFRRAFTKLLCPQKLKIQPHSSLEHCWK

[2] = target: human Histamine H3 receptor (hH3R) (Homo sapiens (Human), UniProt Q9Y5N1); test: Guanosine 5'-O-(3-[35S]thio)triphosphate [GTPγS] binding assay; format: biochemical; settings: antagonist mode vs (R)-α-methyl histamine 30 nM; membranes from CHO cells expressing hH3R
Experimental: The IC50 and nH can be determined by fitting the data to model 205 in XLfit: y=A+((B−A)/(1+((C/x)^D)). Guanosine 5′-O-(3-[^35S]thio)triphosphate [GTPγS] Binding Assay
A GTPγS binding assay can be used to investigate antagonist properties of compounds in CHO cells (Chinese Hamster Ovary) transfected with human Histamine H3 receptor (hH3R). Membranes from CHO cells expressing hH3R (10 μg/well) are diluted in GTPγS assay buffer (20 mM Hepes, 10 mM MgCl2, 100 mM NaCl, pH 7.4) and preincubated with saponine (3 μg/ml), GDP (10 μM) and PVT-WGA SPA beads (125 μg/well) (Amersham) for 30 minutes. To determine antagonist activity, (R)-α-methyl histamine (30 nM) is added in 96 well SPA plate with [^35S]GTPγS (0.2 nM) and various concentration of H3R antagonists. The GTPγS binding assay is started with addition of the mixture membrane/saponine/GDP and incubated for 90 minutes at room temperature. The amount of bound [^35S]GTPγS is determined by using the MicroBeta Trilux counter (PerkinElmer). The percentage of [^35S]GTPγS bound in each sample is calculated as a percentage of that bound control sample incubated in absence of H3 antagonist. Duplicate determinations are obtained for each concentration, and the data are analyzed using ExcelFit4 to obtain the IC50.

pIC50 [1]	pIC50 [2]	SMILES
7.67	–	CC(C)N1CCN(C(=O)[C@H]2C[C@@H]2c2ccccc2)CC1 (relative stereo) [Example 1, trans-(4-Isopropylpiperazin-1-yl)-(2-phenylcyclopropyl)methanone]
7.99	–	CC(C)N1CCN(C(=O)[C@H]2C[C@@H]2c2ccc(F)cc2)CC1 (relative stereo) [Example 10, trans-[2-(4-Fluorophenyl)cyclopropyl]-(4-isopropylpiperazin-1-yl)methanone]
7.69	7.76	N#Cc1ccc([C@H]2C[C@@H]2C(=O)N2CCN(C3CCC3)CC2)cc1 (relative stereo) [Example 21, trans-4-[2-(4-Cyclobutylpiperazine-1-carbonyl)cyclopropyl]benzonitrile]
–	5.45	CC(C)N1CCN(C(=O)[C@@H]2C[C@H]2c2ccccc2)CC1 (single isomer, unassigned; enantiomer 2) [Example 32, trans-(4-Isopropylpiperazin-1-yl)-(2-phenylcyclopropyl)methanone, enantiomer 2]

Reference: US9029381B2, “Cyclopropyl amide derivatives” (Astrazeneca AB, priority 2007, dated 2015)
